pIC50: −log10 of the molar value.

Common to all, as to format: cell-based
The subject of one test is MV-4-11 cells. In words: MV-4-11 cell proliferation inhibition (MTS assay). Conditions: Homo sapiens, MV4-11, 168 h, 7 days incubation, read-out: MV-411 (IC50, Inhibitory Activity of Compounds on MV-4-11 Cell Proliferation). As for the experimental part:
MV-4-11 cells were cultured in IMDM medium supplemented with 10% fetal bovine serum and collected. The cell concentration was diluted according to a 7-day incubation period, and 180 µL of cell suspension was added to each well of a 96-well plate, resulting in 2,000 cells per well. […] The test compounds were prepared from a 10 mM stock solution and serially diluted in a five-fold gradient, and 20 µL of the diluted compound solution was added to each compound-treated well (final DMSO concentration 0.2%). The cells were incubated in a 37 °C, 5% CO2 incubator for 7 days. After incubation, the reaction solution was prepared according to the MTS assay kit instructions (Promega, G5430), and 20 µL was added to each well. The plate was further incubated at 37 °C with 5% CO2 for 3-4 hours. The absorbance at 490 nm was measured using a microplate reader, and the absorbance at 690 nm was used as the background value. The final raw data were calculated as OD490 - OD690. […] The IC50 values for cell proliferation inhibition were determined using GraphPad Prism 5.0. Each experiment was repeated three times, and three parallel replicates were performed in each experiment to calculate the mean value and standard deviation.
Table 3. Inhibitory Activity of Compounds on MV-4-11 Cell Proliferation
For orientation: Tetrazolium dyes change colour on reduction, which living cells bring about.

For another test, the system named is MM.1S cells. Briefly: MM.1S cell proliferation inhibition (MTS assay). Conditions: Homo sapiens, MM1.S, 168 h, 7 days incubation, read-out: MM1.S (IC50, Inhibitory Activity of Compounds on MM.1S Cell Proliferation). As for the experimental part: The cell concentration was diluted according to a 7-day incubation period, and 180 µL of cell suspension was added to each well of a 96-well plate, with 20,000 cells per well. […] The test compounds were prepared from a 10 mM stock solution and serially diluted in a 5-fold gradient, and 20 µL of the diluted solution was added to each compound-treated well (final DMSO concentration also 0.2%). The cells were incubated in a 37 °C, 5% CO2 incubator for 7 days. After incubation, the reaction solution was prepared according to the MTS assay kit instructions (Promega, G5430), and 20 µL was added to each well. The plate was incubated at 37 °C with 5% CO2 for 3-4 hours. The absorbance at 490 nm was measured using a microplate reader, and the absorbance at 690 nm was used as the background value. […] The IC50 values for cell proliferation inhibition were determined using GraphPad Prism 5.0. Each experiment was repeated three times, and three parallel replicates were performed in each experiment to calculate the mean value and standard deviation.
Inhibitory Activity of Compounds on MM.1S Cell Proliferation

In the next test the test system is Mino cells. In words: Mino cell proliferation inhibition (MTS assay). Conditions: Homo sapiens, 72 h, 3 days incubation, read-out: Mino (IC50, Inhibitory Activity of Compounds on Mino Cell Proliferation). As for the experimental part:
The cell concentration was diluted according to a 3-day incubation period, and 90 µL of cell suspension was added to each well of a 96-well plate, resulting in 8,000 cells per well. […] The test compounds were prepared from a 10 mM stock solution and serially diluted in a five-fold gradient. Similarly, 10 µL of the diluted compound solution was added to each compound-treated well (final DMSO concentration 0.2%).
The cells were incubated in a 37 °C, 5% CO2 incubator for 3 days. After incubation, the reaction solution was prepared according to the MTS assay kit instructions (Promega, G5430), and 20 µL was added to each well. The plate was further incubated at 37 °C with 5% CO2 for 3-4 hours. The absorbance at 490 nm was measured using a microplate reader, and the absorbance at 690 nm was used as the background value. The final raw data were calculated as OD490 - OD690. […] The IC50 values for cell proliferation inhibition were determined using GraphPad Prism 5.0. Each experiment was repeated three times, and three parallel replicates were performed in each experiment to calculate the mean value and standard deviation.
Table 2. Inhibitory Activity of Compounds on Mino Cell Proliferation

Consider `Nc1cccc2c1CN(C1CCC(=O)NC1=O)C2=O` (stereo not drawn) [Lenalidomide, reference compound], for which the figures for the pIC50 in the test on MV-4-11 cells, with MM.1S cells and in the test with Mino cells were below 4.70, above 6.70 and below 5.00, respectively.

The values are drawn from patent EP4778920A1, “INDAZOLONE COMPOUND, PREPARATION METHOD THEREFOR, PHARMACEUTICAL COMPOSITION, AND USE” (Shanghai Institute of Materia Medica, Chinese Academy of …, priority 2023, dated 2025).
